We go through one compound from patent US8598345B2 (priority 2009, dated 2013).

Protein sequences, listed by entry. Tags and fused reporters are not part of them. Residues count along the entry.
UniProt P41594, 21-1212: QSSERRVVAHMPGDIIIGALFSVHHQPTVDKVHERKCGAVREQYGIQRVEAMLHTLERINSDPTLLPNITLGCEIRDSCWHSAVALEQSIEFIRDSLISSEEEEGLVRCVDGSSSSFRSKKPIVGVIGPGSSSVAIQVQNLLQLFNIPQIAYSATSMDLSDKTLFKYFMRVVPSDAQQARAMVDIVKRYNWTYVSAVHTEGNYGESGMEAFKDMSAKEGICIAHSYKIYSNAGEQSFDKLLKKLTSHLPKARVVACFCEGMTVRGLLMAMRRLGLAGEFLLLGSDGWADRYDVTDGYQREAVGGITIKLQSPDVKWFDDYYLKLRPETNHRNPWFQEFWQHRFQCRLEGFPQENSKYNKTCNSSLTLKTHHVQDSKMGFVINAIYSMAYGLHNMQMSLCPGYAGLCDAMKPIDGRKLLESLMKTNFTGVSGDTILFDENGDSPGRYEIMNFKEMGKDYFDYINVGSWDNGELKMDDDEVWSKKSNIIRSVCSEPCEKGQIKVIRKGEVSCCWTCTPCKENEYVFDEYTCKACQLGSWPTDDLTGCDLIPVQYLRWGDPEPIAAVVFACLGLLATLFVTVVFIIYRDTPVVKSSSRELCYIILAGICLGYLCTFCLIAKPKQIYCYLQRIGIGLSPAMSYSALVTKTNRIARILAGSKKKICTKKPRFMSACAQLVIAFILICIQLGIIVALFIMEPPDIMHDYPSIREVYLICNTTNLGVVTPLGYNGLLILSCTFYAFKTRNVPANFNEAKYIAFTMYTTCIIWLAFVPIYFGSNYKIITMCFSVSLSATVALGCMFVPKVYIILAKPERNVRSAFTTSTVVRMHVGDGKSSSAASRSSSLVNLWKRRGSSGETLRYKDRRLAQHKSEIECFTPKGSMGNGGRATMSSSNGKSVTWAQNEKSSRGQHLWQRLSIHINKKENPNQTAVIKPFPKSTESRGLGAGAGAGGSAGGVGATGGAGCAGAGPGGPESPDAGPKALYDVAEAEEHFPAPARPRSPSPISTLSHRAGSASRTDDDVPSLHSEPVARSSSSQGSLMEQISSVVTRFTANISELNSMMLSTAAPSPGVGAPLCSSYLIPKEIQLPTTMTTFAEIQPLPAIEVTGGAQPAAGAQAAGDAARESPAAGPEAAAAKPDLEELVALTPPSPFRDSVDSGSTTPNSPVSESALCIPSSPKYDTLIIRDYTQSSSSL

The target in this test is human mGluR5 (Homo sapiens, UniProt P41594). The conditions noted are these: read-out: human mGluR5 IC50.

SMILES strings stand for the structures.

One may read the IC50 as the point on the concentration scale where inhibition reaches its midpoint. Turning to `O=C(NC1CCCCCC1)c1cc(Oc2cncnc2)ccn1`, the IC50 was more than 30 µM.
